In PMC12666569, “The Pseudomonas aeruginosa membrane histidine kinase BqsS/CarS directly senses environmental ferrous iron (Fe^2+)” (The Journal of Biological Chemistry, 2025) one finds Km data, which are given here for one substance.

The Km is the concentration of substrate that gives half-maximal velocity.

This data set has as its system Nc1ncnc2c1ncn2[C@@H]1O[C@H](COP(=O)(O)OP(=O)(O)OP(=O)(O)O)[C@@H](O)[C@H]1O. The experiment in a line: purified protein. The conditions noted are these: 5.0 mM Mg2+, 37 °C, SEC buffer pH 7.5, no added Fe2+.

On to “cytoBqsS (cyto-PaBqsS, cytoPaBqsS) (Pseudomonas aeruginosa PAO1)”, for which the Km turned out to be 244.34 ± 17.28 µM.
